{
  "sequences": {"note": "Chains of the proteins cited; added tags and fusions are not shown.", "UniProt P49146, whole entry": "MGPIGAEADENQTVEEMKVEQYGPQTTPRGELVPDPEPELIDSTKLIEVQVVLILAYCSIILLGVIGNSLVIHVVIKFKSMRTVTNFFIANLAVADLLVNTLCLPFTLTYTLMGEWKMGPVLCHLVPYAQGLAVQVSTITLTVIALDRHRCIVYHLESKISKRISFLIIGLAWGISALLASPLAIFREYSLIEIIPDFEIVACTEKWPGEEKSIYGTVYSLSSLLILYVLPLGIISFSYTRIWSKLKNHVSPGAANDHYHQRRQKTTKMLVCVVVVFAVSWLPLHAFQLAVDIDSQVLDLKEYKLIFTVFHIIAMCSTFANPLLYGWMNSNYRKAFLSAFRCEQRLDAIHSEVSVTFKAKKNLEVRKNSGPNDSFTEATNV"},
  "source": "ChEMBL document CHEMBL3102719",
  "about": "“Ligands of the neuropeptide Y Y2 receptor” (Bioorg Med Chem Lett, 2014)",
  "target": "Neuropeptide Y receptor type 2 (Homo sapiens, UniProt P49146)",
  "experiment": "Displacement of [125I]-PYY from human NPYY2 receptor",
  "note": "pIC50: −log10 of the molar value. Some compounds may have been tested in ways that are not shown here.",
  "data": [
    {"smiles": "CC(=O)N1CCc2ccc(N(C(=O)/C=C/c3ncc[nH]3)C3CCN(Cc4ccccc4)CC3)cc21", "values": [
      {"measurement": "pIC50", "value": 4.77}
    ]}
  ]
}
